Results as given in patent publication US20240374601A1, “METHODS AND COMPOSITIONS FOR TREATING CANCER” (Onconova Therapeutics, Inc., priority 2021, published 2024).

The chains behind the UniProt entries cited, without tags or fusion partners. Residues count along the entry.
UniProt P07333, 20-972 limits assumed: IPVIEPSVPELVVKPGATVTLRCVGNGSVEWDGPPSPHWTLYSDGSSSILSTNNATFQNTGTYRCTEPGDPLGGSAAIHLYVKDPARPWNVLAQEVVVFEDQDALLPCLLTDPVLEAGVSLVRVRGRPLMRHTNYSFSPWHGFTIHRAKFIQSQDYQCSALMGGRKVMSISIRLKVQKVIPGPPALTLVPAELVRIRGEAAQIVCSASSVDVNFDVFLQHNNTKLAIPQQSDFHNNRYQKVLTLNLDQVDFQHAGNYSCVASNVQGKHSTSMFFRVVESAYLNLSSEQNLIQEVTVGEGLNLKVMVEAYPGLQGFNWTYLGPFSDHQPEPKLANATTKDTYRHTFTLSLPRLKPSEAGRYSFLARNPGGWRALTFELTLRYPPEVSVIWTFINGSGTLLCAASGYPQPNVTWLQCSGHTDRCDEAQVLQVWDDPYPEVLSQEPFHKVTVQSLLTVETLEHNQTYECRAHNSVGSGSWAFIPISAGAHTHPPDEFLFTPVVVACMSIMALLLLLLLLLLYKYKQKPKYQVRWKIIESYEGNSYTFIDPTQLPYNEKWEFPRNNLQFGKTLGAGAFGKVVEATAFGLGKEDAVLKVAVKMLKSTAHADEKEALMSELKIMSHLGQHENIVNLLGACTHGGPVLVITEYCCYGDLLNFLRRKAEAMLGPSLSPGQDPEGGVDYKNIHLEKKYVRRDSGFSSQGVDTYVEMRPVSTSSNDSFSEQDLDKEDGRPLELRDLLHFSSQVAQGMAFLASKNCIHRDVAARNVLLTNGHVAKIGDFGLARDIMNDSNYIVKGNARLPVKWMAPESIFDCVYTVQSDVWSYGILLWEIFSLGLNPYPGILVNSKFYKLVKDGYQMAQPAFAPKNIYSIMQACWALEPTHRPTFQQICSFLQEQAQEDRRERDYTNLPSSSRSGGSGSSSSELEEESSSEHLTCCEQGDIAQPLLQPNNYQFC

Target: CSF1R (Homo sapiens, UniProt P07333)
Assay: In vitro multi-kinase activity, IC50
Assay type: biochemical
Settings: read-out: IC50 CSF1R

CCN1CCN(Cc2ccc(Nc3ncc(F)c(-c4cc(F)c5nc(C)n(C(C)C)c5c4)n3)nc2)CC1
IC50: > 10 µM
